Values quoted from earlier work as cited in patent US20100286233A1, “PERIPHERAL AND NEURAL INFLAMMATORY CROSSTALK” (University of Rochester, priority 2006, published 2010).

Amino acid sequences for entries named in this document (tags omitted).
UniProt P35372, whole entry: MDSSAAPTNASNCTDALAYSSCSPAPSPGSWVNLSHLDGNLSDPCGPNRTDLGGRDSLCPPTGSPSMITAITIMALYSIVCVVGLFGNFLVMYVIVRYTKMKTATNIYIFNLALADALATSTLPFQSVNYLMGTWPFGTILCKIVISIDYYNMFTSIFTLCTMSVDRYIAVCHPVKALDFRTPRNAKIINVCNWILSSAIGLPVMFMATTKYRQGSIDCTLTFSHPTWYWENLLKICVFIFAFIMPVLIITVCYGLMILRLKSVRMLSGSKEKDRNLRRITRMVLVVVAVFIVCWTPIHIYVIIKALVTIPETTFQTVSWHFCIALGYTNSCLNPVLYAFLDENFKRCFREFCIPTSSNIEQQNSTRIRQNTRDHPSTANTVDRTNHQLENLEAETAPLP

Molecular target: μ-receptors (Homo sapiens, UniProt P35372)
Details: cited from earlier work

Row | Substance | affinity for μ-receptors
1 | YPWF-NH2 [Endomorphin-1] | highly selective
2 | YPFF-NH2 [endomorphin-2] | highly selective
